OPERA 2.9 data: melting point values

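The OPERA project collected these measurements from public sources as training and test data for property models. One number stands for a compound and property, with no spread given. How each value was measured is not recorded, so precision varies. Where a salt, mixture or single isomer is drawn, the source does not say that exactly this form was tested. Some entries may be limits or estimates that an upstream database listed as plain numbers.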

Melting points are in °C.
Cells with "–" have no entry in this list.
"via" names the databases from which the curators took the value.

structure (SMILES),name,melting point (°C),via
Nc1ccc(S(=O)(=O)Nc2cccc(Cl)c2)cc1,4-amino-N-(3-chlorophenyl)benzenesulfonamide,133,OCHEM
Cc1noc(N)n1,"3-Methyl-1,2,4-oxadiazol-5-amine",162,OCHEM
N#CCC(=O)Nc1ccccn1,2-Cyano-N-(pyridin-2-yl)acetamide,161,OCHEM
CC(=O)N1Cc2ccccc2CC1C(=O)O (configuration not stated),"2-acetyl-1,2,3,4-tetrahydroisoquinoline-3-carboxylic acid",174,OCHEM
CCc1nc2ccccc2n1CC(=O)O,(2-Ethyl-1H-benzimidazol-1-yl)acetic acid,233,OCHEM
CSCCC(NC(=O)c1ccc(Cl)cc1Cl)C(=O)O (configuration not stated),"N-(2,4-Dichlorobenzoyl)methionine",80,OCHEM
Nc1nnc(SCC(=O)O)s1,"[(5-Amino-1,3,4-thiadiazol-2-yl)sulfanyl]acetic acid",197,OCHEM
CCCCCCCCC(CCCCCC)C(=O)OCC(COC(=O)C(CCCCCC)CCCCCCCC)(COC(=O)C(CCCCCC)CCCCCCCC)COC(=O)C(CCCCCC)CCCCCCCC (configuration not stated),–,-57,eChemPortal
Cc1ccc(NC(=O)NC(=O)CCl)cc1C,"2-Chloro-N-[(3,4-dimethylphenyl)carbamoyl]acetamide",145,OCHEM
NCCCOCCCCOCCCN,"1-Propanamine, 3,3'-[1,4-butanediylbis(oxy)]bis-",3.75,eChemPortal
O=S1(=O)CCNc2ccccc21,"3,4-Dihydro-1lambda~6~,4-benzothiazine-1,1(2H)-dione",140,OCHEM
Cn1c(Cc2ccccc2)n[nH]c1=S,"5-benzyl-4-methyl-4H-1,2,4-triazole-3-thiol",159,OCHEM
CCCCCCC(O)CCCCCCCCCCCO (configuration not stated),"Octadecane-1,12-diol",68,eChemPortal
Cc1nc2ccccc2c2c(N)c3ccccc3n12,"6-Methyl-indolo[1,2-c]quinazolin-12-ylamine",201,OCHEM
O=C(O)C1CC(=O)N(c2ccccc2)C1 (configuration not stated),5-oxo-1-phenylpyrrolidine-3-carboxylic acid,192,OCHEM
O=C(O)CCOc1ccccc1F,3-(2-fluorophenoxy)propanoic Acid,113,OCHEM
CC(C)c1ccc2c(c1)OCC(=O)CO2,"2H-1,5-Benzodioxepin-3(4H)-one, 7-(1-methylethyl)-",35,eChemPortal
O=C(O)c1cc(Cl)c(Cl)[nH]1,"4,5-Dichloro-1H-pyrrole-2-carboxylic acid",165,OCHEM
CCn1c(NN)nc2ccccc2c1=O,3-ethyl-2-hydrazinoquinazolin-4(3H)-one,160,OCHEM
CCCCCCCCSCc1cc(C)c(O)c(CSCCCCCCCC)c1,"2-Methyl-4,6-bis[(octylthio)methyl]phenol",14.07,eChemPortal
COc1ccc(C(=O)O)cc1S(N)(=O)=O,4-methoxy-3-sulfamoylbenzoic acid,284,OCHEM
Nc1ccnn1Cc1ccncc1,1-[(Pyridin-4-yl)methyl]-1H-pyrazol-5-amine,220,OCHEM
Cc1cc(N)n(-c2ccc(F)cc2)n1,1-(4-fluorophenyl)-3-methyl-1H-pyrazol-5-amine,110,OCHEM
CC(=O)c1ccc(OC(C)C(=O)O)cc1 (configuration not stated),2-(4-acetylphenoxy)propanoic Acid,160,OCHEM
Oc1ccccc1CNC1CCCCC1,2-Cyclohexylaminomethyl-phenol,62,OCHEM
CN(C)Cc1ccc(C(=O)NN)o1,5-[(dimethylamino)methyl]-2-furohydrazide,117,OCHEM
CC(CC(=O)O)n1nnc2ccccc21 (configuration not stated),3-(1H-Benzotriazol-1-yl)butanoic acid,150,OCHEM
COc1cc(CC(=O)O)ccc1C,2-(3-methoxy-4-methylphenyl)acetic acid,75,OCHEM
Cc1cc(C(N)=O)c2ccccc2n1,2-Methylquinoline-4-carboxamide,247,OCHEM
O=[N+]([O-])c1ccc(S(=O)(=O)Cl)c(Cl)c1,2-Chloro-4-nitrobenzene-1-sulfonyl chloride,76,OCHEM
Cc1c(C=O)c2ccccn2c1C=O,"2-methylindolizine-1,3-dicarbaldehyde",215,OCHEM
COc1ccc2c(c1)N(CC(C)CN1CCC(O)CC1)c1ccccc1S2 (configuration not stated),–,138,OCHEM
Cc1cc(C)n(-c2ccc(CO)cc2)n1,"[4-(3,5-dimethyl-1H-pyrazol-1-yl)phenyl]methanol",17,OCHEM

Extract of 3 entries:

structure (SMILES),name,melting point (°C),via
O=S1(=O)CCNc2ccccc21,"3,4-Dihydro-1lambda~6~,4-benzothiazine-1,1(2H)-dione",140,OCHEM
Cc1cc(C)n(-c2ccc(CO)cc2)n1,"[4-(3,5-dimethyl-1H-pyrazol-1-yl)phenyl]methanol",17,OCHEM
Nc1ccnn1Cc1ccncc1,1-[(Pyridin-4-yl)methyl]-1H-pyrazol-5-amine,220,OCHEM

Values as listed in the OPERA 2.9 repository of K. Mansouri.